Measured values from US20230233541A1, “SUBSTITUTED BENZAMIDES AS MODULATORS OF TREX1” (Constellation Pharmaceuticals, Inc., priority 2020, published 2023).
pEC50: −log10 of the molar value.

By UniProt entry, the sequences of proteins in these tests, tags left out.
UniProt Q9BQ50, whole entry: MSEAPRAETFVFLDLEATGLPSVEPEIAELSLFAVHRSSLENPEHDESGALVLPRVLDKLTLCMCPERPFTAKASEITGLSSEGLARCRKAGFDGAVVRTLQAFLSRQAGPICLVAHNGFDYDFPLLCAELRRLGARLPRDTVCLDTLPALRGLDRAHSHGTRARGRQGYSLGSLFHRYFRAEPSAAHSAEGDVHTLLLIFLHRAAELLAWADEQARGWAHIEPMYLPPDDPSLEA
UniProt Q9NSU2, whole entry: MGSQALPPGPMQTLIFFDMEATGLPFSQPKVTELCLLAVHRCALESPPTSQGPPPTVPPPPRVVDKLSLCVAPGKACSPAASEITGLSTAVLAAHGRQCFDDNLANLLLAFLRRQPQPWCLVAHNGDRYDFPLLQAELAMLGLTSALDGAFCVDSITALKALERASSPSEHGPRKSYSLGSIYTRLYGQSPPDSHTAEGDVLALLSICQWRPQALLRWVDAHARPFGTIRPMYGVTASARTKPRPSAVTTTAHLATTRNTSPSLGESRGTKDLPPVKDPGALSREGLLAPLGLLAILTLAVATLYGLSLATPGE

Experiments:
[1] = target: human TREX2 (residues M44-A279) (Homo sapiens, UniProt Q9BQ50); assay: TREX2 Biochemical Assay (fluorescence assay, degradation of dsDNA substrate); settings: read-out: hTREX2 EC50; 2.5 nM TREX2, 60 nM dsDNA substrate, 25 minutes at room temperature
Method: (§1) Degradation of the dsDNA liberates free fluorophore to produce a fluorescent signal. Specifically, 7.5 μL of N-terminally His-Tev tagged human TREX2 (residues M44-A279, expressed in E. coli and purified in house) in reaction buffer (50 mM Tris (pH 7.4), 150 mM NaCl, 2 mM DTT, 0.1 mg/mL BSA, 0.01% (v/v) Tween-20 and 100 mM MgCl2) was added to a 384-well Black ProxiPlate Plus (Perkin Elmer) which already contained compound (150 nL) at varying concentrations as a 10-point dose-response in DMSO. To this was added 7.5 μL of dsDNA substrate (Strand A: 5′ TEX615/GCT AGG CAG 3′; Strand B: 5′ CTG CCT AGC/IAbRQSp (IDT)) in reaction buffer. Final concentrations were 2.5 nM TREX2, 60 nM dsDNA substrate in reaction buffer with 1.0% DMSO (v/v). After 25 minutes at room temperature, reactions were quenched by the addition of 5 μL of stop buffer (same as reaction buffer plus 200 mM EDTA). […] After a 5-minute incubation at room temperature, plates were read in a laser sourced Envision (Perkin-Elmer), measuring fluorescence at 615 nm following excitation w/570 nm light. IC50 values were calculated by comparing the measured fluorescence at 615 nm ratio relative to control wells pre-quenched w/stop buffer (100% inhibition) and no inhibitor (0% inhibition) controls as using non-linear least square four parameter fits and either Genedata or GraphPad Prism (GraphPad Software, Inc.).

full length human TREX1 = full length human TREX1 (Homo sapiens, UniProt Q9NSU2); assay: TREX1 Biochemical Assay (fluorescence assay, degradation of dsDNA substrate); settings: read-out: hTREX1 EC50; 150 pM TREX1, 60 nM dsDNA substrate, 25 minutes at room temperature
Method: as §1, with “tagged full length” for “tagged”, “TREX1 (expressed” for “TREX2 (residues M44-A279, expressed”, “(Integrated DNA Technologies))” for “(IDT))”, “150 pM TREX1,” for “2.5 nM TREX2,”

| Compound | pEC50 [1] | pEC50 (full length human TREX1) |
| --- | --- | --- |
| Cc1c(Cl)cccc1CN(Cc1ccc(C(=O)O)nc1)C(=O)c1cc(F)cc(F)c1 | 5.00 to 6.00 | > 7.00 |
| O=C(c1ccc2ccccc2c1)N(Cc1cccnc1)Cc1cc(Cl)cc(Cl)c1 | < 4.00 | < 5.00 |
